Reference: PMC9980535 (2023)

B1: E3 chimeric mouse/human Fab (Fab, V domains shown)
VH: EVQLQQSGAELVKPGASVKLSCKASGYTFTSFYMYWVKQRPGQGLEWIGGINPSNGGANFNEKFKNKATLTVDKSSSTAYMQLSSLTSEDSAVYYCTRGFYYGHWYFDVWGAGTTVTVSA
VL: DIVMTQSTSSLSASLGDRVTISCRASQDISNSLNWYQQKPDGTVKLLIHYTSRLHSGVPSRFSGSGSGTDYSLTISNLEQEDIATYFCQQVNTLPLTFGAGTKLEIK
B2: E3 full-length chimeric IgG1 (mouse variable regions on a human IgG1 backbone) (antibody, V domains shown)
VH: B1 VH
VL: B1 VL

Target: T1, recombinant T18.1 T-antigen (backbone pilin) of group A Streptococcus (Streptococcus pyogenes (group A …, intramolecular isopeptide bonds within each Ig-like domain))
T1 chain: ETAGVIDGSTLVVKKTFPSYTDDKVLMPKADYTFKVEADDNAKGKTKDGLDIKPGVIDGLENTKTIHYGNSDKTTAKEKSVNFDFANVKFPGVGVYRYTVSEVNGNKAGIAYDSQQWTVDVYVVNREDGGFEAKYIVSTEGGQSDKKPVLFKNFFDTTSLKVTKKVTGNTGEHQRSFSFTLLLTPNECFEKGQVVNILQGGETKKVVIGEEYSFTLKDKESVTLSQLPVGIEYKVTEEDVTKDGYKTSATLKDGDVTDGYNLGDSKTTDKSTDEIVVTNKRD
Test: ELISA

Row | Binder | EC50
1 | B1 | 3.1 nM
2 | B2 | 0.07 nM
